# Curated experimental data: melting point values

Data: OPERA 2.9 data sets, kmansouri/OPERA on GitHub.

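These are experimental values that the OPERA curators gathered from public databases to train and test their QSAR models. A listed value is a point estimate from one report or more. Method, purity and exact conditions of the single measurements are not given. Where a salt, mixture or single isomer is drawn, the source does not say that exactly this form was tested. Some entries may be limits or estimates that an upstream database listed as plain numbers.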

Melting points are in °C.
"via" names the databases from which the curators took the value.

For Nc1nc2c(Cl)c(Cl)ccc2s1 the data give MP 130 °C (via OCHEM).
For CCCCC(CC)COS(=O)(=O)[O-].[Na+] (configuration not stated) the data give MP 181 °C (via eChemPortal).
For CCCCCCC(O)CCCCCCCCCCC(=O)NCCNC(=O)CCCCCCCCCCC(O)CCCCCC (configuration not stated) the data give MP 138.5 °C (via eChemPortal).
For Clc1nnc(-c2ccccc2)s1 the data give MP 83 °C (via OCHEM).
For CC(=O)Nc1ccc(SCC(=O)O)cc1 the data give MP 157 °C (via OCHEM).
For OCc1cnn(-c2ccccc2)c1 the data give MP 65 °C (via OCHEM).
For COc1cc(OC)cc(C(=O)N2CCC(C(=O)O)CC2)c1 the data give MP 165 °C (via OCHEM).
For Clc1cc(Cl)c(Cl)c(-c2c(Cl)c(Cl)c(Cl)c(Cl)c2Cl)c1Cl the data give MP 204 °C (via QSARDB).
For O=C(O)c1ccc(-c2ccc(Cl)cc2)s1 the data give MP 261 °C (via OCHEM).
For Clc1cc(Cl)c(Oc2c(Cl)c(Cl)c(Cl)c(Cl)c2Cl)cc1Cl the data give MP 168 °C (via QSARDB).
For O=S1(=O)CS(=O)(=O)OCO1 the data give MP 150 °C (via eChemPortal).
For COc1cccc(NCCC(=O)O)c1 the data give MP 88 °C (via OCHEM).
For O=C(Cl)c1cc(F)c(F)cc1F the data give MP -19.9 °C (via eChemPortal).
For NNC(=S)NC1CC1 the data give MP 101 °C (via OCHEM).
For CC1(C)[C@H](C(=O)Cl)[C@@H]1/C=C(\Cl)C(F)(F)F (relative stereo) the data give MP -14.4 °C (via eChemPortal).
For CCCC[N+](C)(CCCC)CCCC.COS(=O)(=O)[O-] the data give MP 54 °C (via eChemPortal).
For Nc1ccc(-n2ccnc2)nc1 the data give MP 115 °C (via OCHEM).
For NNC(=O)c1ccc2c(c1)OCCO2 the data give MP 143 °C (via OCHEM).
For CC(C)(c1ccc(OCCO)cc1)c1ccc(OCCO)cc1 the data give MP 103.2 °C (via eChemPortal).
For CC1(C)[C@@H](/C=C(\Cl)c2ccc(Cl)cc2)[C@@H]1C(=O)O (relative stereo) the data give MP 145 °C (via eChemPortal).
For Cc1sc2[nH]c(=S)[nH]c(=O)c2c1C the data give MP 329 °C (via OCHEM).
For CC(=O)Nc1ccc(S(=O)(=O)N(C)CC(=O)O)cc1 the data give MP 226 °C (via OCHEM).
For c1cnc2c(n1)CCCC2 the data give MP 29.5 °C (via PubChem).
For S=C([S-])NCCNC(=S)[S-].[Mn+2] the data give MP 200 °C (via PubChem).
For Cc1nc(-c2ccccc2)ccc1C(=O)O the data give MP 191 °C (via OCHEM).
For CC(C)(C#N)CC1=CCC2CC1C2(C)C (configuration not stated) the data give MP 37.85 °C (via eChemPortal).
For Cc1ccc(Cl)c(OC(C)C(=O)O)c1 (configuration not stated) the data give MP 138 °C (via OCHEM).
For N#Cc1cc(N)ccc1Cl the data give MP 128 °C (via OCHEM).
For NC(=O)CCNCCO the data give MP 61 °C (via eChemPortal).
For O=C(O)c1ccc(-c2ccccc2Cl)o1 the data give MP 211 °C (via OCHEM).
For CS(=O)(=O)c1cccc(C(=O)Cl)c1 the data give MP 86 °C (via OCHEM).
For N#CCc1cccc(C(=O)O)c1 the data give MP 167 °C (via OCHEM).
For COc1ccc(S(=O)(=O)Cl)cc1[N+](=O)[O-] the data give MP 59 °C (via OCHEM).
For CCNC(=O)CN1CCNCC1 the data give MP 84 °C (via OCHEM).
For CCC[C@H]1CC[C@H]([C@H]2CC[C@H](c3ccc(-c4cc(F)c(F)c(F)c4)c(F)c3)CC2)CC1 the data give MP 114.4 °C (via eChemPortal).
For O=C(Nc1cccc2ccccc12)OCC(F)(F)F the data give MP 110 °C (via OCHEM).
For Cc1ccc(S(N)(=O)=O)s1 the data give MP 119 °C (via OCHEM).
For O=C/C=C/C=C/c1ccc([N+](=O)[O-])cc1 the data give MP 106.9 °C (via PubChem).
For CCC(C(=O)O)c1ccc(N2C(=O)c3ccccc3C2=O)cc1 (configuration not stated) the data give MP 214.2 °C (via eChemPortal).
For C=CC(=O)OCC(C)(C)COC(=O)C=C the data give MP 6 °C (via PubChem).
For C=C(C#N)C(=O)OCCc1ccccc1 the data give MP 34 °C (via eChemPortal).
For Cc1ccc(C(C)(C)O)cc1 the data give MP 9 °C (via PubChem).
For CCC(Cc1ccc(C)cc1)(C(=O)c1ccc(N2CCOCC2)cc1)N(C)C (configuration not stated) the data give MP 81.08 °C (via eChemPortal).
For CCc1cccc(OCC(=O)O)c1 the data give MP 68 °C (via OCHEM).
For Cl.Cn1sccc1=O the data give MP 167.5 °C (via eChemPortal).
For O=C(O)CCN1C(=O)NC2(CCCCC2)C1=O the data give MP 101 °C (via OCHEM).
For O=Cc1cc(Br)ccc1OCc1ccccc1 the data give MP 62 °C (via OCHEM).
For COc1cc(S(=O)(=O)[O-])c(C)cc1NC(=O)CC(C)=O.[NH4+] the data give MP 160 °C (via eChemPortal).
For Nc1nc(-c2nc3ccccc3s2)cs1 the data give MP 249 °C (via OCHEM).
For Cn1c(N)c(C(=O)CCl)c(=O)[nH]c1=O the data give MP 357 °C (via OCHEM).
For CCOC(=O)[C@@H](N)CSC(O)=NC the data give MP 209.5 °C (via OCHEM).

Excerpt, the final 4 entries:

The entry for COc1cc(S(=O)(=O)[O-])c(C)cc1NC(=O)CC(C)=O.[NH4+] lists MP 160 °C (via eChemPortal).
The entry for Nc1nc(-c2nc3ccccc3s2)cs1 lists MP 249 °C (via OCHEM).
The entry for Cn1c(N)c(C(=O)CCl)c(=O)[nH]c1=O lists MP 357 °C (via OCHEM).
The entry for CCOC(=O)[C@@H](N)CSC(O)=NC lists MP 209.5 °C (via OCHEM).